According to patent US9580430B2, “9H-pyrimido[4,5-B]indoles and related analogs as BET bromodomain inhibitors” (THE REGENTS OF THE UNIVERSITY OF MICHIGAN, priority 2014, dated 2017):

Assays:
recombinant BRD4 BD1 = recombinant BRD4 BD1 (Homo sapiens, UniProt O60885); experiment: Competitive fluorescence-polarization (FP) binding assay, BRD4 BD1; conditions: read-out: IC50 (nM) BRD4 BD1, protein 10 nM, probe 1.5 nM, tested form: TFA salt
recombinant BRD4 BD2 = recombinant BRD4 BD2 (Homo sapiens, UniProt O60885); experiment: Competitive fluorescence-polarization (FP) binding assay, BRD4 BD2; conditions: read-out: IC50 (nM) BRD4 BD2, protein 6 nM, probe 1.5 nM, tested form: TFA salt

| SMILES | IC50 (recombinant BRD4 BD1) [nM] | IC50 (recombinant BRD4 BD2) [nM] |
| --- | --- | --- |
| COc1cc2c(cc1-c1c(C)noc1C)[nH]c1nc(C)nc(Sc3cccc(Cl)c3)c12 | > 1000 | > 1000 |
| COc1cc2c(cc1-c1c(C)noc1C)[nH]c1nc(C)nc(Sc3ccccc3Cl)c12 | > 1000 | > 1000 |
